From paper PMC10295865

Biological target: N-terminal region of Gaussia princeps luciferase (Gluc) sequence-tagged UBL3 (NGluc-UBL3) (not stated (RefSeq NM_007106 is a human entry)) (UniProt O95164)
Assay: split reporter (BiFC, NanoBiT); Gaussia princeps split luciferase complementation assay as drug screen; HEK293 cells transfected with NGluc-UBL3 and α-syn-CGluc, 96-well plates, DMEM (10% FBS); cells treated for 48 h with drugs (1 and 10 uM) or MPP+ (50-600 uM), DMSO as control; luminescence of the cell culture medium, normalised to DMSO and divided by cell viability (MTT)

C-terminal region of Gluc sequence-tagged α-syn (α-syn-CGluc) (from UniProt P37840-1 1-140) (natural protein)
ratio of luminescence to cell viability relative to DMSO, with 1 uM erlotinib: 0.73
ratio of luminescence to cell viability relative to DMSO, with 1 uM gemcitabine: 1.37
ratio of luminescence to cell viability relative to DMSO, with 10 uM erlotinib: 0.72
ratio of luminescence to cell viability relative to DMSO, with 10 uM gemcitabine: 1.53
ratio of luminescence to cell viability relative to DMSO, with 10 uM osimertinib: 0.55
